The list shows a part of the results, in another mix than the full data. Measured potencies and affinities stand elsewhere. Some salts or complexes appear as unconnected parts, following the source record. Activity calls are given as the source filed them. Rule as the data show it: active = activation above about 50% (passing the limit was not always enough); inactive = the rest.
molecular target: Kappa-type opioid receptor (Homo sapiens) (UniProt P41145); assay: kappa opioid receptor activators – cell-based, luminescence, uHTS, primary screen (AID 1777); details: KOR beta-arrestin recruitment, at 10 µM, stronger effect = higher value

Sequences of proteins named here, by UniProt entry; tags and fusion partners are left off.
UniProt P41145, whole entry: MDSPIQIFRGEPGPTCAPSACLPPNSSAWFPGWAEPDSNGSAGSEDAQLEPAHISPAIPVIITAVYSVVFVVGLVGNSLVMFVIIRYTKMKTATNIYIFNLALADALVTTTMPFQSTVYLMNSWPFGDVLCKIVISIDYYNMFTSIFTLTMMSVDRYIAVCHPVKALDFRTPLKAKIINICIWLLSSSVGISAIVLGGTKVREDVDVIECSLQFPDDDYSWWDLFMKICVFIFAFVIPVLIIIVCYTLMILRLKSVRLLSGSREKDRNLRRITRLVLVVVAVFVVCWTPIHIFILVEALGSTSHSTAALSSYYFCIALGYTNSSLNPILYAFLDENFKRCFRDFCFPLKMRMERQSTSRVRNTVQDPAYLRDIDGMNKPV

Row | Compound | activation
1 | COc1ccc2c(c1O)-c1c(O)c(OC)cc3c1[C@H](C2)[N+](C)(C)CC3.O=[N+]([O-])c1cc([N+](=O)[O-])c([O-])c([N+](=O)[O-])c1[O-] | inactive: 4.7%
2 | O=C(OCCN1CCN(CCOCc2ccccc2)CC1)C(O)(c1ccccc1)c1ccccc1 | inactive: 9.9%
3 | O=C(OC1CN2CCC1CC2)c1ccc([N+](=O)[O-])cc1 (stereo not given) | inactive: 3.9%
4 | CC(C)c1ccc(OP(C)(=O)Nc2ccc(SC(F)(F)F)cc2)cc1 (stereo not given) | inactive: 1.1%
5 | CP(=O)(Nc1ccccc1F)Oc1ccccc1 (stereo not given) | inactive: 8%
6 | O=[N+]([O-])c1cc([N+](=O)[O-])c(OC2CCCCC2O)c([N+](=O)[O-])c1 (stereo not given) | inactive: -3.8%
7 | CP(=O)(Nc1ccccc1)Oc1ccc(F)cc1 (stereo not given) | inactive: 5.2%
8 | CCN(CC)CCCOC(=O)C(O)(c1ccccc1)C1CCCCC1 (stereo not given) | inactive: -7.5%
9 | COc1ccc(OP(C)(=O)Nc2ccc(SC(F)(F)F)cc2)cc1 (stereo not given) | inactive: 6.3%
10 | CCOC(=O)c1ccc(NP(C)(=O)Oc2ccc(F)cc2)cc1 (stereo not given) | inactive: 0.8%
11 | Cc1cc(-c2cccc3ccccc23)c(C)cn1.O=[N+]([O-])c1cc([N+](=O)[O-])c(O)c([N+](=O)[O-])c1 | inactive: 4.8%
12 | O=[N+]([O-])c1cc([N+](=O)[O-])c(NCC2CCS(=O)(=O)C2)c([N+](=O)[O-])c1 (stereo not given) | inactive: -7.4%
13 | O=[N+]([O-])c1ccc(OP2(=O)COCCO2)cc1 (stereo not given) | inactive: 2.7%
14 | COc1ccc(NP(C)(=O)Oc2ccccc2OC)cc1 (stereo not given) | inactive: 0.4%
15 | CN(C)CCOC(=O)C(O)(c1ccccc1)C1CCCCC1 (stereo not given) | inactive: 1.1%
16 | CN(C)C1(CNC(=O)c2ccc(Cl)c(S(N)(=O)=O)c2)CCCCC1 | inactive: 0.1%
17 | COc1ccc(OP(C)(=O)Nc2cccc(Br)c2)cc1 (stereo not given) | inactive: 0.7%
18 | Cc1ccccc1NP(C)(=O)Nc1ccccc1C | inactive: -0.9%
19 | CP(=O)(Nc1ccc2c(c1)OCCO2)Oc1ccccc1 (stereo not given) | inactive: -5.8%
20 | CCOP(C)(=S)SCC(=O)NC(C)(CC)C(=O)O (stereo not given) | inactive: -2.9%
21 | CP(=O)(Nc1ccc(SC(F)(F)F)cc1)Oc1ccc(F)cc1 (stereo not given) | inactive: 4%
22 | CCCCN1CCC(C#N)(Nc2ccccc2)CC1 | inactive: 9.2%

Row | Compound | activation
23 | CN(C)C(=O)c1c([N+](=O)[O-])cc([N+](=O)[O-])cc1[N+](=O)[O-] | inactive: 0.8%
24 | CP(=O)(Nc1ccc(Cl)cc1)Oc1ccc(F)cc1 (stereo not given) | inactive: -0.2%
25 | COc1ccccc1OP(C)(=O)Nc1ccccc1Br (stereo not given) | inactive: -6.3%
26 | CP(=O)(Oc1ccccc1)N1CCOC1=O (stereo not given) | inactive: 5.1%
27 | CCc1ccc(OP(C)(=O)Nc2cccnc2)cc1 (stereo not given) | inactive: 1.7%
28 | COc1ccccc1OP(C)(=O)Nc1c(C)n(C)n(-c2ccccc2)c1=O (stereo not given) | inactive: -2.8%
29 | O=C(OCCCN1CCCC1)C(O)(c1ccccc1)C1CCCCC1 (stereo not given) | inactive: 1.4%
30 | CCN(CC)CC(O)COC(=O)C(O)(c1ccccc1)C1CCCCC1 (stereo not given) | inactive: -2%
31 | COc1ccc(OP(C)(=O)Nc2ccc(Br)cc2)cc1 (stereo not given) | inactive: 0%
32 | CP(=O)(OC12CC3CC(CC(C3)C1)C2)OC12CC3CC(CC(C3)C1)C2 | inactive: -2%
33 | CCOC(=O)c1ccc(NP(C)(=O)Oc2ccc(Cl)cc2)cc1 (stereo not given) | inactive: 1.5%
34 | CP(=O)(Nc1ccc(Cl)cc1Cl)Oc1ccccc1 (stereo not given) | inactive: -3.5%
35 | CP(=O)(OCCOc1ccccc1)OCCOc1ccccc1 | inactive: -2.8%
36 | Cc1nc2ccc3ccccc3c2o1.O=[N+]([O-])c1cc([N+](=O)[O-])c(O)c([N+](=O)[O-])c1 | inactive: 9.9%
37 | COc1ccc(OP(C)(=O)Nc2ccccc2Br)cc1 (stereo not given) | inactive: -0.4%
38 | COc1ccccc1OP(C)(=O)Nc1ccc(C)c(C)c1 (stereo not given) | inactive: -3.1%
39 | CCc1ccc(OP(C)(=O)O)cc1 | inactive: 2.1%
40 | CP(=O)(Nc1ccccn1)Oc1ccccc1 (stereo not given) | inactive: -3.9%
41 | COc1ccccc1OP(C)(=O)Nc1ccc(C)cc1C (stereo not given) | inactive: 2.3%
42 | Cc1c(NP(C)(=O)Oc2ccc(C(C)C)cc2)c(=O)n(-c2ccccc2)n1C (stereo not given) | inactive: 6.5%
43 | O=[N+]([O-])c1cc([N+](=O)[O-])c(Nc2ccccn2)c([N+](=O)[O-])c1 | inactive: -7.8%
44 | CN(C)CCOC(=O)C(O)(c1ccccc1)C1CCCC1 (stereo not given) | inactive: 9.6%

Row | Compound | activation
45 | COc1ccc(OP(C)(=O)Nc2ccccn2)cc1 (stereo not given) | inactive: 4%
46 | COc1ccccc1OP(C)(=O)Nc1ccc(Br)cc1 (stereo not given) | inactive: 0.5%
47 | CCN(CC)CCn1c(NCc2ccc(OC)cc2)nc2ccccc21 | inactive: -0.9%
48 | CCN(CC)CCCOC(=O)C(O)(c1ccccc1)c1ccccc1 | inactive: -1.6%
49 | COc1ccc(OP(C)(=O)Nc2cccc(F)c2)cc1 (stereo not given) | inactive: -3%
50 | Cc1cc(C)cc(OP(C)(N)=O)c1 (stereo not given) | inactive: -2.3%
51 | CCOC(=O)c1ccc(NP(C)(=O)Oc2ccccc2)cc1 (stereo not given) | inactive: 3.6%
52 | COc1ccccc1OP(C)(=O)Nc1ccc(C)cc1 (stereo not given) | inactive: 4.5%
53 | Cc1ccc(NP(C)(=O)Oc2ccccc2)c(C)c1 (stereo not given) | inactive: -3.9%
54 | CC(C)(C)c1ccc(OP(C)(=O)Nc2ccc(SC(F)(F)F)cc2)cc1 (stereo not given) | inactive: 1%
55 | Cc1cccc(C)c1OP(C)(N)=O (stereo not given) | inactive: -2.1%
56 | O=[N+]([O-])c1ccc2c(c1)C=Nc1ccccc1O2 | inactive: 1.8%
57 | COc1ccccc1OP(C)(=O)Nc1ccccc1 (stereo not given) | inactive: -4.2%
58 | CP(=O)(Nc1ccccc1Br)Oc1ccccc1 (stereo not given) | inactive: 4.2%
59 | CP(=S)(Nn1cnnc1)Oc1ccccc1 (stereo not given) | inactive: -1.6%
60 | CCCCOc1ccc(C(=O)NCC2(N3CCCCC3)CCCCC2)cc1OC | inactive: -3.6%
61 | CP(=O)(Nc1ccccn1)Oc1ccc(Cl)cc1 (stereo not given) | inactive: 1.9%
62 | CCOP(C)(=S)SCC(=O)NC(C)C(=O)O (stereo not given) | inactive: -3.2%
63 | CCOC(=O)c1ccc(NP(C)(=O)Oc2ccc(OC)cc2)cc1 (stereo not given) | inactive: -1.4%
64 | CP(=O)(NC(=O)Nc1ccccc1)Oc1ccccc1 (stereo not given) | inactive: 4.3%
65 | CCc1ccc(OP(C)(=O)N2CCN(c3ccc([N+](=O)[O-])cc3)CC2)cc1 (stereo not given) | inactive: -1.7%

Source: PubChem BioAssay AID1777 (Sanford-Burnham Center for Chemical Genomics, 2009)
